Consider one substance from patent publication US20250093270A1, “Method for Detecting Enzyme Activity and Fluorescent Probe Used in Said Method” (priority 2022, published 2025).

In this data set the test system is cholinesterase (ChE). The settings on record: time course fluorescence imaging in the microdevice. The procedure: An enzyme stock solution was diluted with an assay buffer containing a fluorescent probe. Next, 40 μL of a reaction mixture was added to the microdevice (Simoa disk; Quanterx Corporation). Next, 80 μL of FC-70 (Sigma-Aldrich) was introduced into the microdevice to wash off the excess reaction mixture and form W/O droplets. A fluorescence signal of the catalytically produced fluorescent dye was measured under a fluorescence microscope, and the enzyme activity in the chamber was measured.
Fluorescence images were acquired using a 20× dry objective (Plan Apo 20x), an sCMOS camera (ORCA-FusionC14440, Hamamatsu Photonics K.K.), a white LED lighting unit (X-Cite Xylis, Opto Science, Inc.), and a fluorescence microscope (Ti2, Nikon Corporation) equipped with a motorized stage. In the analysis, measurement was performed using a solution containing sSiR (10 μM) as an internal standard and the focus was adjusted using fluorescence. Images were acquired in tile scan mode at full focus.
FIG. 5(c) illustrates a schematic diagram of a coupled assay of an acetylthiocholine system for detection of cholinesterase (ChE) activity.
The image was acquired after incubation at 25° C. for 30 minutes.
The upper view is a fluorescence image of a microdevice equipped with a probe (30 μM), acetylthiocholine (1 mM), and a 1/10,000-fold diluted plasma sample of a healthy human subject. […]

On to “2,6-diPO3H2 Nitroolefin BODIPY [compound 17]”, for which the “fading in time course imaging” value is reported as “about 5 %/captured image”.
